By UniProt entry, the sequences of proteins in these tests, tags left out.
UniProt P15823, whole entry: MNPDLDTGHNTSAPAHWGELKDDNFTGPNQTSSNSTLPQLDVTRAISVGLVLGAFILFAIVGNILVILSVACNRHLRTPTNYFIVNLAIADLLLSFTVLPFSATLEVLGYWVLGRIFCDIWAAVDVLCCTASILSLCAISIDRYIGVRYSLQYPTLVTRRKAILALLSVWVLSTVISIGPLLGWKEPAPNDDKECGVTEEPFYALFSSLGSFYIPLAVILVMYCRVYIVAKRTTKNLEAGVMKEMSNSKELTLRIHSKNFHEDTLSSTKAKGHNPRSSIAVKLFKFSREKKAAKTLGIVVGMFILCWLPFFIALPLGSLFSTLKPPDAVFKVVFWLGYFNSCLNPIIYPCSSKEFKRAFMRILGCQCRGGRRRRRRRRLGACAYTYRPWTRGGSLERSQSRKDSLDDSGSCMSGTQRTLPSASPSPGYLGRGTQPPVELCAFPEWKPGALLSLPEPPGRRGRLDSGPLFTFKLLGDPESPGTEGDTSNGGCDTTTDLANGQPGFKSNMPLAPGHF

In BindingDB's records for PubMed 1706716 (Duke University, 1991):

Target: Alpha-1B adrenergic receptor (Rattus norvegicus, UniProt P15823)

Ki: 4.69 µM
SMILES: CNCC(O)c1ccc(O)c(O)c1 (stereo unspecified) [EPINEPHRINE]
